The pKi is the negative decadic logarithm of the Ki, by convention in mol/L. A higher pKi goes with a low Ki.

This is an account of results in ChEMBL document CHEMBL1641500, “Carbonic anhydrase inhibitors. Inhibition studies with anions and sulfonamides of a new cytosolic enzyme from the scleractinian coral Stylophora pistillata” (Bioorg Med Chem Lett, 2011).

The test addresses Carbonic anhydrase 6 (Homo sapiens, UniProt P23280).

pKi: −log10 of the molar value.

The compound `O=[As](O)(O)c1ccccc1` showed a pKi of 7.86.
